Apparent affinities of Ab-14 variants for a coronavirus HR2 peptide

From the AlphaSeq antibody data of Li et al. 2023 (doi:10.1038/s41467-023-39022-2), copy in the FLAb collection.

Antigen: PDVDLGDISGINAS, a 14-residue peptide of the SARS-CoV-2 spike HR2 region.

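The parent was found by panning a naive human phage display library on the peptide. This is the validation round: designs drawn from the data on random variants, tested in the same kind of assay. Group labels follow the data file (En: ensemble of fine-tuned language models; GP: Gaussian process model; HC: hill climbing; Gen: genetic algorithm; Gibbs: Gibbs sampling; a sequence that several methods proposed may carry one label only). The scFvs were displayed on barcoded MATa yeast, the peptide on MATalpha yeast. Pairs that bind mate more often; barcode pairs of the diploids are counted by sequencing. A regression on co-assayed BCL2-family reference pairs converts the normalised counts of each replicate to an apparent Kd. Mating was done six times.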

Ab-14 is the parent antibody, in scFv form: VH, then a (GGGGS)3 linker, then VL. The heavy chain is unchanged in all variants.
VH: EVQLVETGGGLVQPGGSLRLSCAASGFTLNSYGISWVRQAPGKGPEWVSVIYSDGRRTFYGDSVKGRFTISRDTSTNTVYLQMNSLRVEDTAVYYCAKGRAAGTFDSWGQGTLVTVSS
VL: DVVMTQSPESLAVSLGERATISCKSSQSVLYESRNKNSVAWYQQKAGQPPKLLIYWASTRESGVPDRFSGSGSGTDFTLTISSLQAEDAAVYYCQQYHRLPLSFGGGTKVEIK

Each variant is given by its three light chain CDRs, as the data file delimits them; those of the parent are KSSQSVLYESRNKNSVA, WASTRES, QQYHRLPLS. Variants here have more than six changes. Values are apparent Kd, the geometric mean of the replicates that gave a signal; lower means stronger binding. "nd" marks a missing value. The strain was present, yet no cells mated with the target were sequenced in any replicate, which points to weak or no binding. The parent sequence was in this pool as ten entries: three were never detected, three once, and four in most replicates, with averages from 2.2 nM to 240 nM. The authors' rule: three or more of the six replicates give a measured affinity, fewer mean a poor binder. Nonspecific signal, from three strains lacking the peptide, appeared in 4% of pairings of all light chain designs, centred on 430 nM (5% of these signals below 38 nM); values are not corrected for it. The range of this assay differs from that of the first round, and the authors advise against merging the two.

For KISFWSYPGSLWHNNIA, GGAQRAE, QQYSRLPLN [En_Gibbs], the assay gave 40 nM (5 of 6 replicates).
For NLMGQGADSIKHANSIA, NVDLVDM, QQYAHLPLS [En_Gibbs], the assay gave 280 nM (3 of 6 replicates).
For LIMKFMSQDGSARNNIA, GDTKLAQ, QHYHRLPLS [En_Gibbs], the assay gave nd (0 of 6 replicates).
For FLAGALDQDGLIKNNIA, QDNLLEN, QQYERLPLG [En_Gibbs], the assay gave nd (0 of 6 replicates).
For KVMQEMPYESRMANSVA, NASQRES, QQYHRLPLS [GP_Gibbs], the assay gave 480 pM (6 of 6 replicates).
For MMSQVQGQGTRHRNNVA, QTEQREP, QQYDRLPLI [En_Gen], the assay gave 3.5 nM (6 of 6 replicates).
For NMTGTKEMQSNNINNIA, EMNERFQ, QQYFQLPLS [En_Gibbs], the assay gave 37 nM (6 of 6 replicates).
For KLLQTVMNETRNKNNVA, HMTTRED, QQYHRLPLS [En_HC], the assay gave 2.6 nM (6 of 6 replicates).
For DMTVQFNGASKIQNSVA, HGVEKCD, QQYSRLPLA [En_Gibbs], the assay gave 890 pM (6 of 6 replicates).
For KLTMIQGTEKVRGNNVA, EMETREN, QQYNRLPLS [En_Gen], the assay gave 1.1 nM (6 of 6 replicates).
For KLSFLGPYEQRNKNSVA, SASTRCS, QQYHRLPLS [GP_Gibbs], the assay gave 830 pM (6 of 6 replicates).
For ILYDSVLTLSRNKNSVA, DNSTRES, QQYDRLPLS [En_HC], the assay gave 120 nM (4 of 6 replicates).
For HITYGMNVAGRHSSSIA, QAETREK, QQYDRLPLE [En_Gen], the assay gave 12 nM (6 of 6 replicates).
For NFGQKMALYTGDRYSIA, DATVRAD, QQYSRLPLT [En_Gibbs], the assay gave 1.4 nM (6 of 6 replicates).
For MVSQLMLWGYHAKNSIA, EAQMRLN, QQYDRLPLF [En_Gen], the assay gave 65 nM (1 of 6 replicates).
For HITYGMMVHGRHSSSIA, QAEERAK, QQYDRLPLA [En_Gen], the assay gave 50 nM (6 of 6 replicates).
For MIYGTQRELGLAANSIA, DNVTRYQ, QQYERLPLS [En_Gen], the assay gave 600 nM (2 of 6 replicates).
For QLENDMTMNQGTRHNIA, EATVIAP, QQYHRLPII [En_Gibbs], the assay gave 6.0 nM (6 of 6 replicates).
For QLQLVQQGDTISEYSVA, HAEVSGR, QQYSQLPLI [En_Gibbs], the assay gave nd (0 of 6 replicates).
For KLRQQTLYETRNKNSVA, MASTREE, QQYHRLPLS [GP_HC], the assay gave 10 nM (6 of 6 replicates).
For KLSISGLHSSIDKKSIA, ERSTREN, QQYHRLPLS [En_HC], the assay gave 5.5 nM (6 of 6 replicates).
For HITYGMMVAGRHSSSIA, QAEERAK, QQYDRLPLM [En_Gen], the assay gave 4.7 nM (6 of 6 replicates).
For TLGASTLEESRNKNSVA, EMSLREE, QSYNRLPLS [En_HC], the assay gave 10 nM (6 of 6 replicates).
For KVSQQGLYGQRNANSVA, NASTRED, QQYHRLPLS [GP_Gibbs], the assay gave 2.7 nM (6 of 6 replicates).
For TISQLHNMGTFAINSVA, QASIRNS, QQYDRLPLI [En_Gen], the assay gave 4.5 nM (6 of 6 replicates).
For MVYQAALMGGVARNSIA, NATMRPD, QQYHRLPLI [En_Gen], the assay gave 400 nM (3 of 6 replicates).
For KMSQSVDLESRNDNAVA, MASTRMM, QQYHRLPLS [GP_Gibbs], the assay gave 830 pM (6 of 6 replicates).
For TISQLMLYESRNKNNVA, GTSTREN, QCYHRLPLS [En_HC], the assay gave 100 nM (2 of 6 replicates).
For KLSTSVLYGKRNKNSVA, QASQRMS, QQYHRLPLS [GP_Gibbs], the assay gave 15 nM (6 of 6 replicates).
For MIAESIGYQSRNKNSVA, DNSTRED, QCYDRLPLS [En_HC], the assay gave 540 nM (1 of 6 replicates).
For LGNAEDQGDDRGMNNIA, GGDTKMA, QQYHRLPLS [En_Gibbs], the assay gave 660 pM (6 of 6 replicates).
For HMSMLTLGGMRQKNSVA, QMTTREN, QQYDRLPLT [En_Gen], the assay gave 8.7 nM (6 of 6 replicates).
For KITLIFSNKGNQRHSVA, NAETLAH, QQYYRLPFL [En_Gibbs], the assay gave 73 nM (1 of 6 replicates).
For KISQMVRVGSTHSNSIA, EEATRAK, QQYHRLPLA [En_Gen], the assay gave 5.2 nM (6 of 6 replicates).
For MIASGLRGVGRNKNSVA, NAQTRES, QHYHRLPLS [En_HC], the assay gave 14 nM (6 of 6 replicates).
For KFGQSVLMGSYVRNSVA, QQSTRVN, QQYDRLPLS [En_HC], the assay gave 3.2 nM (6 of 6 replicates).
For HMSMLTLQGMRHTNSVA, QMTTRVN, QQYDRLPLT [En_Gen], the assay gave 7.9 nM (6 of 6 replicates).
For KSDQSELEEQRNDNSVA, SASTRMS, QQYHRLPLS [GP_Gibbs], the assay gave 1.2 nM (6 of 6 replicates).
For TISELHNQALGTRNNVA, NNQTRED, QQYDRLPLS [En_Gen], the assay gave 1.6 µM (2 of 6 replicates).
For ALQMETLGQKQKQNNIA, NQQMRTA, QQYYMLPLS [En_Gibbs], the assay gave 2.8 nM (6 of 6 replicates).
For KLYDMSALTVTNIRNVA, DNSTREA, QQYHRLPLS [En_Gen], the assay gave 1.4 nM (6 of 6 replicates).
For RLMGLDVTEKNDQSAIA, NQQTHLT, QQYERLPLI [En_Gibbs], the assay gave 13 nM (5 of 6 replicates).

The closing 4 entries, repeated:

CDR-L1	CDR-L2	CDR-L3	group	Kd	seen in
TISELHNQALGTRNNVA	NNQTRED	QQYDRLPLS	En_Gen	1.6 µM	2/6
ALQMETLGQKQKQNNIA	NQQMRTA	QQYYMLPLS	En_Gibbs	2.8 nM	6/6
KLYDMSALTVTNIRNVA	DNSTREA	QQYHRLPLS	En_Gen	1.4 nM	6/6
RLMGLDVTEKNDQSAIA	NQQTHLT	QQYERLPLI	En_Gibbs	13 nM	5/6